# From paper PMC10979493
# The chains behind the UniProt entries cited, without tags or fusion partners. Where a name states a change or a piece, a line headed by the entry shows the natural chain unless it says otherwise. Residues count along the entry.
# UniProt P40763, 127-722 limits assumed: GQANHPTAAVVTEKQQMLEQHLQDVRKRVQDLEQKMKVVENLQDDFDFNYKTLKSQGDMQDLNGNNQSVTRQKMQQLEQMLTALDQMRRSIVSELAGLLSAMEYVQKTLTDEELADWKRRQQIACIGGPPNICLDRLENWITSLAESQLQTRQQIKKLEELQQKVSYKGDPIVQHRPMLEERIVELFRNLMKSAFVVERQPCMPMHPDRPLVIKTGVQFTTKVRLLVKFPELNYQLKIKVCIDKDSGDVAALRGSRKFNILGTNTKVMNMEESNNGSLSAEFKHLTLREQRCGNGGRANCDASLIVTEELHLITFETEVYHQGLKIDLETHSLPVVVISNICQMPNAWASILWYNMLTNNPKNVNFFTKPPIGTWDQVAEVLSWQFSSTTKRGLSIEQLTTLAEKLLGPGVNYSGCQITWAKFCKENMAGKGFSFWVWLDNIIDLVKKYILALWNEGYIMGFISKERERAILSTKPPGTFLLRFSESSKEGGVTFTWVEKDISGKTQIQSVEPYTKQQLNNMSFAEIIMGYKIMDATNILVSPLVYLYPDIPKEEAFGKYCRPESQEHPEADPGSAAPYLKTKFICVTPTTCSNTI
# UniProt P40763, 586-685 K626A limits assumed: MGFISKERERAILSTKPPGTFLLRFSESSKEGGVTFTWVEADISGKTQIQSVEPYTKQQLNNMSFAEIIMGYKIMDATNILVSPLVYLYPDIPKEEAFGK
# UniProt P40763, 586-685 Q644A limits assumed: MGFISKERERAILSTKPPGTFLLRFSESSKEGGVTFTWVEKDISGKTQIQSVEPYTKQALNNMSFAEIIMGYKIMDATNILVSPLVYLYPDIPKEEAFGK
# UniProt P40763, 586-685 Y640A limits assumed: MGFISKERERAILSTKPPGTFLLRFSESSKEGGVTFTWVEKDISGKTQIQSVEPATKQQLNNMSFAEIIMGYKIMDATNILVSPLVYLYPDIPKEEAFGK
# UniProt P05177, whole entry: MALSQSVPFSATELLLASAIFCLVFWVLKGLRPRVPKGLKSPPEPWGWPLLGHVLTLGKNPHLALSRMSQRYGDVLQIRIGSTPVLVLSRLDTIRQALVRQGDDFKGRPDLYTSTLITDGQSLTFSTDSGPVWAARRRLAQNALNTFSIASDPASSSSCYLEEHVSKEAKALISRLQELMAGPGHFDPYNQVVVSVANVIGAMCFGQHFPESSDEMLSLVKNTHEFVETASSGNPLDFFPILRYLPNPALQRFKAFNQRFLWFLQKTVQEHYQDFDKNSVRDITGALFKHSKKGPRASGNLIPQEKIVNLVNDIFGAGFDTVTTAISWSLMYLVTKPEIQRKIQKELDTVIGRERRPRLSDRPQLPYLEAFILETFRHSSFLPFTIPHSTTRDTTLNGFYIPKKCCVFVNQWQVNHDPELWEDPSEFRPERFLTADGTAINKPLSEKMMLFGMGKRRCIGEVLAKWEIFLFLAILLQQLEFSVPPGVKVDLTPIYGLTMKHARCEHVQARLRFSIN
# Columns and labels:
# [1] = biological target: STAT3^127–722 (Homo sapiens, UniProt P40763); assay: MST binding to STAT3 127–722
# Source text: (§1) STAT1 (amino acid residues 127–716), STAT2 (amino acid residues 138–702), STAT3 (amino acid residues 127–722), STAT4 (amino acid residues 133–705), STAT5B (amino acid residues 136–703) and STAT6 (amino acid residues 113–658) were cloned into the pET28A vector. STAT3-SH2 (amino acid residues 586–685) and the mutants of the STAT3-SH2 produced by site-directed mutagenesis were also cloned into the pET28A vector. All recombinant human fusion proteins were expressed in E. coli BL21 (DE3). Then, according to different induction conditions, the protein expression was induced. During the induction of the expression of STAT3-SH2 and all the mutants, STAT1, STAT2, STAT3 and STAT6, when the OD value reached about 0.6–1.0, the E. coli was transferred to 22 °C and 0.5 mM Isopropyl β-D-1-thiogalactopyranoside (IPTG) was added. For the expression of STAT4 and STAT5B when the OD value reached about 0.5–0.6, the E. coli was transferred to 30 °C for 2.5–3 h and 0.2 mM IPTG was added.
# (§2) Microscale thermophoresis (MST) was conducted as previously described.[28] Binding affinities of YY002, Stattic against purified STAT3^127–722 and STAT3-SH2 protein or YY002 against STAT3-SH2 WT and mutants were measured by a Monolith NT.115 (Nanotemper Technologies). […] The samples were then loaded into premium capillaries (NanoTemper Technologies) and measured at 25 °C using 20%–40% LED power and medium MST power. […]
# [2] = biological target: STAT3-SH2D mutant K626A (Homo sapiens, UniProt P40763, K626A); assay: MST binding to STAT3-SH2 mutant K626A
# Source text: as §1, §2
# [3] = biological target: STAT3-SH2D mutant Y640A (Homo sapiens, UniProt P40763, Y640A); assay: MST binding to STAT3-SH2 mutant Y640A
# Source text: as §1, §2
# [4] = biological target: STAT3-SH2D mutant Q644A (Homo sapiens, UniProt P40763, Q644A); assay: MST binding to STAT3-SH2 mutant Q644A
# Source text: as §1, §2
# [5] = test system: STAT3 negative PC3 cells; assay: Colony formation, PC3 cells
# Protocol: Tumor cells were seeded into 6-well plates, allowing attachment overnight. The test compounds were added at indicated concentrations for 1 week of treatment. Then colonies were fixed by 4% paraformaldehyde (PFA) and then stained with 0.2% crystal violet. Images were photographed using a digital camera, and colonies were quantified by manual counting.
# [6] = test system: STAT3 nuclear translocation; assay: Immunofluorescence of STAT3 nuclear translocation; conditions: IL6 stimulated
# Protocol: BxPC-3 and Capan-2 cells were cultured on glass coverslips at a density of 10^5 per well of 24-well plate. After treating with YY002 for 24 h, IL-6 was added for 30 min stimulation. Then, the culture medium was removed, and the cell slides were fixed with 4% paraformaldehyde for 15 min and permeated by 0.2%Triton X-100 for 20 min. Next, after PBS wash and blocking in 0.5% BSA, primary antibodies were added to incubate with cells overnight at 4 °C, and then, cells were incubated with corresponding secondary antibodies for 1 h at room temperature. Finally, DAPI was added and a confocal microscope (Leica) was used to record images.
# [7] = test system: mitochondrial membrane potential; assay: Mitochondrial membrane potential assay (JC-1); conditions: PANC-1 cells
# Protocol: Luciferase reporter assay
# The HEK293T cells were seeded in 24-well plates, The 500 ng STAT3 luciferase […]
# mutation plasmids and 10 ng Renilla plasmids were co-transfection into each well of
# plates with Lipofectamine 2000 reagent (Invitrogen) and incubated for 20-24 h. Then,
# the cells were added with IL-6 (20 ng/mL). Luciferase assays were performed by using
# the Dual Luciferase Reporter Assay System (Promega) according to manufacturer’s
# instructions. The firefly luciferase activities were normalized against Renilla luciferase
# Mitochondrial membrane potential assay
# Mitochondrial membrane potential was assessed following the manufacturer's
# instructions (Beyotime, C2006). Briefly, the cells were seeded in 6-well plates, YY002
# treated for 24h. Then the cells were washed with PBS and incubated with JC‐1 probe
# in 1× dye working buffer for 20 min at 37°C. After washing with cleaning buffer,
# JC‐1 monomers and JC‐1 aggregates were detected with Flow cytometry to indicate
# mitochondrial membrane potential.
# Reactive Oxygen Species (ROS) Assay
# ROS assay was performed following the manufacturer's instructions (Beyotime,
# S0033S). Briefly, the pancreatic cancer cells were seeded in 6-well plates, YY002
# treated for 20h. Then the cells were wash with cold PBS for three times. Dilute 2',7'-
# Dichlorodihydrofluorescein diacetate (DCFH-DA) with serum-free culture medium at […]
# [8] = Pharmacokinetics in mice
# Protocol: To evaluate the antitumor effect of YY002 in vivo, we first determined the pharmacokinetic properties of YY002. The plasma exposure and pharmacokinetic parameters were detected following oral and intravenous administration at 10 and 1 mg/kg, respectively. The Cmax of YY002 was 4307.80 ng/mL in mice under oral administration. The t1/2 value of oral administration of YY002 was 14.30 h. After intravenous administration, YY002 Cmax was 8154.40 ng/mL at a mean t1/2 of 16.60 h (Supplementary Figure S5A).
# [9] = biological target: CYP1A2 (Homo sapiens, UniProt P05177)
# [10] = Plasma stability, rat
# [11] = Liver microsome stability, monkey
# [12] = test system: PAN02-luc cells; assay: Liver metastasis model of pancreatic cancer (PAN02)
structure (smiles),measurement,setting,value
Cn1c(C(=O)N2CCN(Cc3ccc(OCC(F)(F)F)cc3)CC2)cc2ccc(Oc3cnc(-c4nc(-c5ccc(C(F)(F)F)cc5)no4)cn3)cc21,Kd,[1],18.3 nM
same,"Direct binding affinity, fold better than tested STAT3 inhibitors",[1]; vs Stattic,approximately 1000 fold
same,Binding affinity compared with SH2D-WT,[2],only modestly changed
same,Binding affinity compared with SH2D-WT,[3],only modestly changed
same,Binding affinity compared with SH2D-WT,[4],only modestly changed
same,Effect on colony formation,[5],little impact
same,STAT3 nuclear translocation,[6],significantly inhibited STAT3 nuclear translocation
same,Mitochondrial membrane potential (MMP),[7],drastically affected
same,AUC0-24,[8]; iv 1 mg/kg,28492.8 ng·h/mL
same,AUC0-∞,[8]; iv 1 mg/kg,31926.9 ng·h/mL
same,CL,[8]; iv 1 mg/kg,0.522 mL/min/kg
same,Cmax,[8]; iv 1 mg/kg,8154.40 ng/mL
same,MRT0-t,[8]; iv 1 mg/kg,12.7 h
same,Vd,[8]; iv 1 mg/kg,0.616 L/kg
same,t1/2,"[8]; iv 1 mg/kg, 1 mg/kg",13.6 h
same,AUC0-24,[8]; po 10 mg/kg,89145.2 ng·h/mL
same,AUC0-∞,[8]; po 10 mg/kg,102082.3 ng·h/mL
same,CL,[8]; po 10 mg/kg,1.63 mL/min/kg
same,Cmax,[8]; po 10 mg/kg,4307.80 ng/mL
same,MRT0-t,[8]; po 10 mg/kg,15.0 h
same,Vd,[8]; po 10 mg/kg,2.0187 L/kg
same,t1/2,[8]; po 10 mg/kg,14.30 h
same,"F (AUC0-t), oral bioavailability","[8]; po 10 mg/kg, 10 mg/kg",31.3%
same,IC50,[9],> 25000 nM
same,Plasma t1/2,[10],> 2 h
same,Liver Microsomes t1/2,[11],> 2 h
same,Survival of tumor-bearing mice,[12]; independent experiment,significantly prolonged the survival
same,Tumor signal (bioluminescence),"[12]; mouse, in vivo",significantly inhibited tumor signal
